# Test: Plasma pharmacokinetics of MK-2206 given with trastuzumab
# Conditions: co-administration, compared with prior monotherapy study
substance,measurement,value
trastuzumab: HER2-targeted agent given as standard intravenous infusion [reference compound],effect on the pharmacokinetics of MK-2206,did not appreciably alter the pharmacokinetics of MK-2206
